CycPeptMPDB entries from one study

Values of Furukawa et al. 2016, doi:10.1021/acs.jmedchem.6b01246, as listed in CycPeptMPDB.

PAMPA is the parallel artificial membrane permeability assay, which has no cells and reads passive diffusion. Values are log10 P with P in cm/s, so -5 is more permeable than -7.

CCCC[C@@H]1NC(=O)[C@H](CC(C)C)N(C)C(=O)CN(CCOc2ccccc2)C(=O)[C@H](Cc2ccccc2)NC(=O)CN(CCN2CCOCC2)C(=O)[C@H]2CCCN2C1=O has PAMPA -5.76 (log10 cm/s). CCCC[C@@H]1NC(=O)[C@H](CC(C)C)N(C)C(=O)CN(CCCc2cnn(C)c2)C(=O)[C@H](Cc2ccccc2)NC(=O)CN(CC)C(=O)[C@H]2CCCN2C1=O has PAMPA -5.70 (log10 cm/s). CCCC[C@@H]1NC(=O)[C@H](CC(C)C)N(C)C(=O)CN(CC2CCOCC2)C(=O)[C@H](Cc2ccc3ccccc3c2)NC(=O)CN(Cc2ccc(Cl)cc2)C(=O)[C@H]2CCCN2C1=O has PAMPA -7.82 (log10 cm/s). CCCC[C@@H]1NC(=O)[C@H](CC(C)C)N(C)C(=O)CN(CCOc2ccccc2)C(=O)[C@H](C)NC(=O)CN(CC)C(=O)[C@H]2CCCN2C1=O has PAMPA -5.46 (log10 cm/s). CCCC[C@@H]1NC(=O)[C@H](CC(C)C)N(C)C(=O)CN(CCc2cccnc2)C(=O)[C@H](Cc2ccc3ccccc3c2)NC(=O)CN(Cc2ccc(Cl)cc2)C(=O)[C@H]2CCCN2C1=O has PAMPA -8.45 (log10 cm/s).

The entry for CCCCCN1CC(=O)N(C)[C@@H](CC(C)C)C(=O)N[C@@H](CCCC)C(=O)N2CCC[C@@H]2C(=O)N(CCC)CC(=O)N[C@@H](Cc2ccc3ccccc3c2)C1=O lists PAMPA -7.20 (log10 cm/s). Listed for CCCC[C@@H]1NC(=O)[C@H](CC(C)C)N(C)C(=O)CN(CCc2cccnc2)C(=O)[C@H](CC(C)C)NC(=O)CN(Cc2cc(CC(C)C)on2)C(=O)[C@H]2CCCN2C1=O: PAMPA -5.16 (log10 cm/s). CCCC[C@@H]1NC(=O)[C@H](CC(C)C)N(C)C(=O)CN(CC2CCCCC2)C(=O)[C@H](Cc2ccc3ccccc3c2)NC(=O)CN(CC)C(=O)[C@H]2CCCN2C1=O has PAMPA -6.58 (log10 cm/s). Listed for CCCC[C@@H]1NC(=O)[C@H](CC(C)C)N(C)C(=O)CN(CCCc2ccccc2)C(=O)[C@H](CC(C)C)NC(=O)CN(CCN2CCOCC2)C(=O)[C@H]2CCCN2C1=O: PAMPA -5.31 (log10 cm/s). CCCC[C@@H]1NC(=O)[C@H](CC(C)C)N(C)C(=O)CN(CCOC)C(=O)[C@H](Cc2ccccc2)NC(=O)CN(CC(C)C)C(=O)[C@H]2CCCN2C1=O is reported with PAMPA -5.06 (log10 cm/s).

CCCC[C@@H]1NC(=O)[C@H](CC(C)C)N(C)C(=O)CN(CCOc2ccccc2)C(=O)[C@H](CC(C)C)NC(=O)CN(Cc2ccc(Cl)cc2)C(=O)[C@H]2CCCN2C1=O is reported with PAMPA -7.56 (log10 cm/s). CCCC[C@@H]1NC(=O)[C@H](CC(C)C)N(C)C(=O)CN(CCOC)C(=O)[C@H](Cc2ccc3ccccc3c2)NC(=O)CN(Cc2ccccc2Cn2cccn2)C(=O)[C@H]2CCCN2C1=O is reported with PAMPA -6.17 (log10 cm/s). CCCC[C@@H]1NC(=O)[C@H](CC(C)C)N(C)C(=O)CN(CCCN2CCCC2=O)C(=O)[C@H](Cc2ccc3ccccc3c2)NC(=O)CN(Cc2ccc3c(c2)OCO3)C(=O)[C@H]2CCCN2C1=O has PAMPA -6.50 (log10 cm/s). CCCC[C@@H]1NC(=O)[C@H](CC(C)C)N(C)C(=O)CN(CCCc2ccccc2)C(=O)[C@H](Cc2ccc3ccccc3c2)NC(=O)CN(CCCOC(C)C)C(=O)[C@H]2CCCN2C1=O has PAMPA -7.00 (log10 cm/s). Listed for CCCC[C@@H]1NC(=O)[C@H](CC(C)C)N(C)C(=O)CN(CCOC)C(=O)[C@H](CC(C)C)NC(=O)CN(CCCCc2ccccc2)C(=O)[C@H]2CCCN2C1=O: PAMPA -5.75 (log10 cm/s).

Again, the 2 entries with the lowest PAMPA:

For CCCC[C@@H]1NC(=O)[C@H](CC(C)C)N(C)C(=O)CN(CCc2cccnc2)C(=O)[C@H](Cc2ccc3ccccc3c2)NC(=O)CN(Cc2ccc(Cl)cc2)C(=O)[C@H]2CCCN2C1=O the data give PAMPA -8.45 (log10 cm/s).
For CCCC[C@@H]1NC(=O)[C@H](CC(C)C)N(C)C(=O)CN(CC2CCOCC2)C(=O)[C@H](Cc2ccc3ccccc3c2)NC(=O)CN(Cc2ccc(Cl)cc2)C(=O)[C@H]2CCCN2C1=O the data give PAMPA -7.82 (log10 cm/s).

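Lipid, pH, incubation time, direction and concentration are not recorded in the data file. The list need not hold all peptides of the study. Entries at the database's floor value (log10 P of -10) are not listed.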